Reference: patent publication US5384243A (dated 1995)

Legend:
m1 and m3 mACHR [1] = conditions: focus-derived cells; data not shown
m1 and m3 mACHR [2] = conditions: focus-derived m1 and m3 cells

C[N+](C)(C)CCOC(N)=O [carbachol]
colonies in soft agar in presence of agonist (m1 and m3 mACHR [1]): capable of forming large colonies in soft agar | foci on replating in presence of carbachol (m1 and m3 mACHR [2]): foci arose
